This is an account of results in patent US20040235712A1, “Coordination complexes having tethered therapeutic agents and/or targeting moieties, and methods of making and using the same” (priority 2003, published 2004).

pIC50: −log10 of the molar value.

One series concerns MCF-7 cells. As to conditions: read-out: Cytotoxicity data (IC50) MCF-7, 5-7 days incubation, SRB.
For the next series, the system named is HCC-1937 cells. As to conditions: read-out: Cytotoxicity data (IC50) HCC-1937, 5-7 days incubation, SRB.

For the substance “cis, cis, trans-diamminedichloro-bis-(17-(N-carbonylmethylsuccinato)-estradiol-3-benzoate)platinum(IV) [BEP1]”, the pIC50 (as a rule, the negative decadic logarithm of the IC50, by convention in mol/L) was 5.43 in the series on MCF-7 cells and 5.42 in the series with HCC-1937 cells.

Regarding “cis, cis, trans-diamminedichloro-bis-(17-(N-(2-carboxy-ethyl)-succinato)-estradiol-3-benzoate)platinum(IV) [BEP2]”, the values for the pIC50 in the series with MCF-7 cells and with HCC-1937 cells were 5.54 and 5.41, respectively.

As for “cis, cis, trans-diamminedichloro-bis-(17-(N-(4-carboxy-butyl)-succinato)-estradiol-3-benzoate)platinum(IV) [BEP4]”, the figures for the pIC50 in the series with MCF-7 cells and in the series with HCC-1937 cells were 5.39 and 5.37, respectively.

For “cis, cis, trans-diamminedichloro-bis-(17-(N-(5-carboxy-pentyl)-succinato)-estradiol-3-benzoate)platinum(IV) [BEP5]”, the negative-log IC50 (pIC50) was 5.30 in the series on MCF-7 cells and 5.41 in the series on HCC-1937 cells.

For the substance “cis, cis, trans-diamminedichloro-bis-(17-(N-(3-carboxy-propyl)-succinato)-estradiol-3-benzoate)platinum(IV) [BEP3]”, the pIC50 in the series on MCF-7 cells was 5.68; in the series on HCC-1937 cells, 5.40.
